For 1 compound, IC50 results are on record in publication PMC12640937, “Integrating drug effects on individual cardiac ionic currents and cardiac action potentials to understand nonclinical translation to clinical ECG changes” (Frontiers in Pharmacology, 2025).

The chains behind the UniProt entries cited, without tags or fusion partners. Where a name states a change or a piece, a line headed by the entry shows the natural chain unless it says otherwise. Residues count along the entry.
UniProt Q13936, 1-2138 isoform Q13936-12: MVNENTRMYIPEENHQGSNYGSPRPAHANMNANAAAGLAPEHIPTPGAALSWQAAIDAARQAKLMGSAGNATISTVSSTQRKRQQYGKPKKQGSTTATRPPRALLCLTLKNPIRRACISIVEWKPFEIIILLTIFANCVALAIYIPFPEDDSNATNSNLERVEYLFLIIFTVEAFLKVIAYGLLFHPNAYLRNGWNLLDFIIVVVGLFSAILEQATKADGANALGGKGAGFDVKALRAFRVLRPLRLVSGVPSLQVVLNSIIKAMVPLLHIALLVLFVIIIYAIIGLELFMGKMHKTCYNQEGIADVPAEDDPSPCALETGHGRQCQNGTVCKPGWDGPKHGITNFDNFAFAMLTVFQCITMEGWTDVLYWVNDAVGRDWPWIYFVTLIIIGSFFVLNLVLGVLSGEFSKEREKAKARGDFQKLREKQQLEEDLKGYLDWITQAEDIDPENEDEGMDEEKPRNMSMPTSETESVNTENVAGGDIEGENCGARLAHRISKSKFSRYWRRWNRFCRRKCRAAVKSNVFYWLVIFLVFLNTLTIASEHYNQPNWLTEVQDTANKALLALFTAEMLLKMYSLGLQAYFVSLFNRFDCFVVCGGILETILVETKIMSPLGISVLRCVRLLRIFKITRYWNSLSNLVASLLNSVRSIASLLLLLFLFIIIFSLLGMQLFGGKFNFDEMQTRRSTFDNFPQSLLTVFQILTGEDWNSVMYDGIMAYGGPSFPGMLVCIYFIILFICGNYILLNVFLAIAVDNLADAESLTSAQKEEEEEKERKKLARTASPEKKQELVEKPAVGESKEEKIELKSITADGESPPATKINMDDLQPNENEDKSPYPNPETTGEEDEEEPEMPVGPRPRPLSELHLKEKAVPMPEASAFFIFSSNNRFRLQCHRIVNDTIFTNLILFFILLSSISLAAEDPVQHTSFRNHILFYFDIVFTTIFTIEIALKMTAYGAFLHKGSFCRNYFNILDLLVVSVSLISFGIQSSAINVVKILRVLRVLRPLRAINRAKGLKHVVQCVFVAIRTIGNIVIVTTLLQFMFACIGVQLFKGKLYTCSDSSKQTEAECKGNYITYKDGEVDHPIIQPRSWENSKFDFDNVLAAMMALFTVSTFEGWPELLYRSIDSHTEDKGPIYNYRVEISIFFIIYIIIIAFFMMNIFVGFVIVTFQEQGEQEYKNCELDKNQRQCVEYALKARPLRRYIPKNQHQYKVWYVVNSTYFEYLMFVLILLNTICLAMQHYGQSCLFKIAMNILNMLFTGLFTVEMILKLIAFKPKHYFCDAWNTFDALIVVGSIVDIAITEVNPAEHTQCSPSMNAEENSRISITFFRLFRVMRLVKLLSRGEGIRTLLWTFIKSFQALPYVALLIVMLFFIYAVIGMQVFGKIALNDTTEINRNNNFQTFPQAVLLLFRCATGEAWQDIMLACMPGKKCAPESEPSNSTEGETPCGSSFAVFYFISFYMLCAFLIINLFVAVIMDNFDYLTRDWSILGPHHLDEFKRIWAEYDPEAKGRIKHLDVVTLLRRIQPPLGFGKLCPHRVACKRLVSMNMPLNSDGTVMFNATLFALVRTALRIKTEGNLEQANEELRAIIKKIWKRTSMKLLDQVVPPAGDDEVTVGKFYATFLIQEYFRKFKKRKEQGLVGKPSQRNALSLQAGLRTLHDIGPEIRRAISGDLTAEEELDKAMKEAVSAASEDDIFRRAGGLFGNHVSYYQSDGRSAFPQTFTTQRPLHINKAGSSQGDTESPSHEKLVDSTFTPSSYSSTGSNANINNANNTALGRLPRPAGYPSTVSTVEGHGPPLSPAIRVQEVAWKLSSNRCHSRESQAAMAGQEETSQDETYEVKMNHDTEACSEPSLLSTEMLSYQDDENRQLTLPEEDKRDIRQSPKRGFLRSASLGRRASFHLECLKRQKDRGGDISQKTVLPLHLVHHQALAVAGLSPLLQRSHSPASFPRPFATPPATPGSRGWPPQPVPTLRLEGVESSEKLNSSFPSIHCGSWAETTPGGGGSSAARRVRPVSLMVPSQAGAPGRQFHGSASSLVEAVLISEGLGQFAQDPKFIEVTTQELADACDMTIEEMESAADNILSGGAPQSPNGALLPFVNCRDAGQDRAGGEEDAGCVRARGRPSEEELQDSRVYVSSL

SMILES strings stand for the structures.

The target of the assay is ICaL (CHO cells expressing hCaV1.2 α1C, β2, α2δ1 subunits) (Homo sapiens, UniProt Q13936). The experiment in a line: cell-based.

Compound `Cc1cccc(C)c1OCC(C)N` (stereo not shown) [mexiletine] gave a concentration for half-maximal inhibition (IC50) of 22.6 µM.

By IC50 is commonly meant the concentration that gives 50% inhibition. Read a low IC50 as inhibition by little substance.
